This experiment has as its system haloperidol-induced catalepsy. As to the kind of experiment: Haloperidol-induced catalepsy test for antiparkinsonian effects. In kind it is in vivo. Particulars: Rattus norvegicus, po; p.o. 1 h before haloperidol 0.25 mg/kg s.c.; read-out: Minimum effective dose (peroral administration). The text has this:
1 ) a vertical wire netting (40×40 cm high).
2) a horizontal bar 9 cm above the floor
3) a 9 cm high block (bar)
4) a 3 cm high block (cork)

Molecules are shown by their SMILES.

`COC(=O)[C@@H]1[C@@H](c2ccc3ccccc3c2)C[C@@H]2CC[C@H]1N2C` [(1R,2R,3S)-2-carbomethoxy-3-(2-naphthyl)tropane]: the minimal effective dose came to 1 mg/kg.
Consider `COC(=O)[C@@H]1[C@@H](c2ccc(Cl)c(Cl)c2)C[C@@H]2CC[C@H]1N2C` [(1R,2R,3S)-2-carbomethoxy-3-(3,4-dichlorophenyl)tropane], for which the minimal effective dose came out at 0.25 mg/kg.
